## Ab-14 heavy chain CDR variants: yeast mating affinities

Antigen: PDVDLGDISGINAS, a 14-residue peptide of the SARS-CoV-2 spike HR2 region.

The variants keep the light chain, the linker and the frameworks of Ab-14 (scFv order VH, a 15-residue (Gly4Ser)3 linker, VL).
VH: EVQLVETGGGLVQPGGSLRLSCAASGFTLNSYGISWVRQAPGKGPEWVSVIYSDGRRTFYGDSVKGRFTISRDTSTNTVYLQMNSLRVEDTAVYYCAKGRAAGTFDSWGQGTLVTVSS
VL: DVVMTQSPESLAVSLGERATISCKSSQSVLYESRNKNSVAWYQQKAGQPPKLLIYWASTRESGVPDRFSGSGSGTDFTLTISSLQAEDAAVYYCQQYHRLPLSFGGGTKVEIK

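Phage display of a naive human antibody library on the peptide gave the parent. In library AAYL49, one, two or three CDR residues were substituted; doubles and triples were drawn at random. Affinity was read by AlphaSeq, a pooled yeast mating assay with surface-displayed partners. Mating (16 h, 30 °C) was followed by selection of diploids and sequencing of their barcodes. A regression on co-assayed BCL2-family reference pairs converts the normalised counts of each replicate to an apparent Kd. The assay was run in three technical replicates.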

The whole VH of each variant is written out.
The Kd shown is the geometric mean over detected replicates; a lower Kd is a better binder.
Where no diploid with the target was found in any replicate, the entry reads "not detected": below detection, most likely a poor binder, though not proof of it.

VH	Kd	seen in
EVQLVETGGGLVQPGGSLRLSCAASGFTLNSYGISWVRQAPGKGPEWVSVMYSDGRRTFYGDKVKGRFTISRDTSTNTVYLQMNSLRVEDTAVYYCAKGRAAGTFDSWGQGTLVTVSS	18 nM	3 of 3
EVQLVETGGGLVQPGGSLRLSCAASGFTLESYGISWVRQAPGKGPEWVSVIYADGRPTFYGDSVKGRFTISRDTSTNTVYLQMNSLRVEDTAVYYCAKGRAAGTFDSWGQGTLVTVSS	not detected	0 of 3
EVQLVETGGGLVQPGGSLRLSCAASGFTLNSYGMSWVRQAPGKGPEWVSVIYDDGRRTFAGDSVKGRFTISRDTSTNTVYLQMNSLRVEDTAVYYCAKGRAAGTFDSWGQGTLVTVSS	not detected	0 of 3
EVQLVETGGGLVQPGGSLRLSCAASGFTLVSYGISWVRQAPGKGPEWVSVIFSDGRRTFYGDSVKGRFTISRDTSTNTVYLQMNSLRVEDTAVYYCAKGRRAGTFDSWGQGTLVTVSS	13 µM	2 of 3
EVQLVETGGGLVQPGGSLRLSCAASQYELNSYGISWVRQAPGKGPEWVSVIYSDGRRTFYGDSVKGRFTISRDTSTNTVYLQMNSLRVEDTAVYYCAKGRAAGTFDSWGQGTLVTVSS	26 µM	2 of 3
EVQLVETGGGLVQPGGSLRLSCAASGFTLNSYGISWVRQAPGKGPEWVSVIYSDGRRTFYGDSVFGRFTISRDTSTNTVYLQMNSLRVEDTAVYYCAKARVAGTFDSWGQGTLVTVSS	290 nM	3 of 3
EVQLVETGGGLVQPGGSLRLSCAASGFTLNAYGISWVRQAPGKGPEWVSHIYSDGRMTFYGDSVKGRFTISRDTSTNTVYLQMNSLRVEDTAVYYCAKGRAAGTFDSWGQGTLVTVSS	not detected	0 of 3
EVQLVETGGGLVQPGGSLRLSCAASGHTLNSYGIEWVRQAPGKGPEWVSVIYSDGRRTFYGDSVKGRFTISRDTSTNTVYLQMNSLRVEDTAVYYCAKGRAAGTFGSWGQGTLVTVSS	not detected	0 of 3
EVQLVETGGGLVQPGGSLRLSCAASGFTCNSEGISWVRQAPGKGPEWVSVIYSDGRRTFYGDSVKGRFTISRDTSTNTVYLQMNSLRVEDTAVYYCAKGRAAGTFDSWGQGTLVTVSS	not detected	0 of 3
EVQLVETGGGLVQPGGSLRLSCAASGFTLVSYGISWVRQAPGKGPEWVSVIYSDGRRTFYGDSVKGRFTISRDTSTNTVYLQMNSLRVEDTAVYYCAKGRAAGNFDCWGQGTLVTVSS	83 µM	1 of 3
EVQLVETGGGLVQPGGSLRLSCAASGFTLNSYGISWVRQAPGKGPEWVSVIYSDERRTFYGDSVKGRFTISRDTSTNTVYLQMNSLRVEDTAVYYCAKGRAAGNSDSWGQGTLVTVSS	24 µM	2 of 3
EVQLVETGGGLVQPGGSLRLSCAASGRTLNSYGISWVRQAPGKGPEWVSVIYSDYRRTFYGDSVKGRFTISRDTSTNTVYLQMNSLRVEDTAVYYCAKGRQAGTFDSWGQGTLVTVSS	not detected	0 of 3
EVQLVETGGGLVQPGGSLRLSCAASGFTLNSYPISWVRQAPGKGPEWVSVIYSDWRRTFYGDGVKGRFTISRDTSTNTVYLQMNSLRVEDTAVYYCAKGRAAGTFDSWGQGTLVTVSS	not detected	0 of 3
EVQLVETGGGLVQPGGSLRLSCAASGFTWNSYGISWVRQAPGKGPEWVSVIYSDGRRTAYGDSVKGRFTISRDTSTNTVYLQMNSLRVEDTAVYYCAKGRAAGTFDSWGQGTLVTVSS	110 nM	1 of 3
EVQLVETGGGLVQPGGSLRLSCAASSFTLNSPGISWVRQAPGKGPEWVSVIYSDGRRTFYGDSVKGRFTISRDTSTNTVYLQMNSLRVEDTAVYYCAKGRAAGTTDSWGQGTLVTVSS	not detected	0 of 3
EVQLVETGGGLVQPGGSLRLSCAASGFTLNSCGSSWVRQAPGKGPEWVSVIYSDGRRTFYGDSVKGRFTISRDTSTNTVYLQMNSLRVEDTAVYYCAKGQAAGTFDSWGQGTLVTVSS	not detected	0 of 3
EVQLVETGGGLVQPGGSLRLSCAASGFTLNSYGIYWVRQAPGKGPEWVSVIYSDGRRTFYGDLVKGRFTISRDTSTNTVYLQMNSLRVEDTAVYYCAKGRAAGTFDSWGQGTLVTVSS	not detected	0 of 3
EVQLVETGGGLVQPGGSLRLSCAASGFTLNSYGISWVRQAPGKGPEWVSRIYSDGRLTFYHDSVKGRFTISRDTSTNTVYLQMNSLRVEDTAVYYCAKGRAAGTFDSWGQGTLVTVSS	4.6 µM	2 of 3
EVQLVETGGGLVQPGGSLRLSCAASGFTLNSYGISWVRQAPGKGPEWVSVIYSNGRRDFYGQSVKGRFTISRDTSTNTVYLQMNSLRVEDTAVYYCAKGRAAGTFDSWGQGTLVTVSS	not detected	0 of 3
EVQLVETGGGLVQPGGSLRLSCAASGFTINSYGISWVRQAPGKGPEWVSVIYSDGRRTFYGDGVKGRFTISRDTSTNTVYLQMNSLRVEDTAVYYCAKGRASGTFDSWGQGTLVTVSS	19 nM	3 of 3
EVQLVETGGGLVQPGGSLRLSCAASGFTLNSYGISWVRQAPGKGPEWVSVIYSWGRRTRYGDSVKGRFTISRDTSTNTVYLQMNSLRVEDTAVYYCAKGRAAGTFDSWGQGTLVTVSS	not detected	0 of 3
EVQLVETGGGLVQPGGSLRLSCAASGVTLNSYGISWVRQAPGKGPEWVSVIYSDGRRTFYGDSVKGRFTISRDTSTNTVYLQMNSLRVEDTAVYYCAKGRAAGTCDSWGQGTLVTVSS	310 nM	3 of 3

Excerpt, the final 2 entries:

VH	Kd	seen in
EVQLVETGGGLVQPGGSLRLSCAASGFTLNSYGISWVRQAPGKGPEWVSVIYSWGRRTRYGDSVKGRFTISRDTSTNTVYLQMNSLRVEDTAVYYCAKGRAAGTFDSWGQGTLVTVSS	not detected	0 of 3
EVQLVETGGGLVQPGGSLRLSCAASGVTLNSYGISWVRQAPGKGPEWVSVIYSDGRRTFYGDSVKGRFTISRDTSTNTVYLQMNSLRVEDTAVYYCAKGRAAGTCDSWGQGTLVTVSS	310 nM	3 of 3

Nonspecific signal, from three strains lacking the peptide, appeared in 15% of pairings of library AAYL49, centred on 11 µM (5% of these signals below 680 nM); values are not corrected for it.

The measurements come from Engelhart et al. 2022 (doi:10.1038/s41597-022-01779-4) through the FLAb antibody collection.